Ab-14 heavy chain CDR variants: yeast mating affinities

Reference: Li et al. 2023, doi:10.1038/s41467-023-39022-2. File: FLAb, binding data.

Binding partner: SARS-CoV-2 spike HR2 peptide, sequence PDVDLGDISGINAS.

Parent: Ab-14, a human scFv built as VH, the linker GGGGSGGGGSGGGGS, VL. Only the CDRs of the heavy chain vary.
VH: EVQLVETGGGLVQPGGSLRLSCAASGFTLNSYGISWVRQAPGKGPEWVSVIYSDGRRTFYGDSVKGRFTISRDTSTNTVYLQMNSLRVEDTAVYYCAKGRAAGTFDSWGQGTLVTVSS
VL: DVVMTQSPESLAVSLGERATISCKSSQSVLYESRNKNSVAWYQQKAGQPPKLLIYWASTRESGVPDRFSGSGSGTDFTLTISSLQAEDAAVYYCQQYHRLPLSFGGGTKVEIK

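The parent was found by panning a naive human phage display library on the peptide. The variants were designed computationally from a first round of random CDR variants and then made and measured. Group labels follow the data file (Ctrl: baseline library sampled from a position-specific scoring matrix, with some repeated check sequences; GPLM: also part of the Gaussian process libraries; HC: hill climbing; a sequence that several methods proposed may carry one label only). The scFvs were displayed on barcoded MATa yeast, the peptide on MATalpha yeast. Pairs that bind mate more often; barcode pairs of the diploids are counted by sequencing. Read counts were normalised to the haploid input and turned into Kd by a linear fit to BCL2-family pairs of known affinity, for each replicate. Each pool was mated in six replicate cultures.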

Each variant is given by its three heavy chain CDRs, as the data file delimits them; those of the parent are GFTLNSYGIS, VIYSDGRRTFYGDSVK, GRAAGTFDS.
Values are log10 of the apparent Kd in nM; lower means stronger binding.
"ND" marks a missing value. The strain was present, yet no cells mated with the target were sequenced in that replicate, which points to weak or no binding.

CDR-H1	CDR-H2	CDR-H3	group	log10 Kd (nM) by replicate	signal with controls
GFTLNMYGIS	VIYSDGRRTFYQDSVK	GRAAGTFDS	Ctrl	ND ND ND ND ND ND	0 of 18
GFTLNSYGIS	VIYSDGRRTFYGDKVK	GRARGTFDS	Ctrl	-0.02 1.05 0.70 ND 1.30 0.60	0 of 18
GFTLNSYGIS	VIYSDGRRTFYGDSVK	GEAADTFDS	Ctrl	ND ND ND ND ND ND	0 of 18
GFTMNDYGIS	VIYSDGRREFYTDSVK	GRAAGTFFS	Ctrl	ND ND ND ND ND ND	0 of 18
GFTLNSYGIS	VIYSDGQRTFYGDSVK	GRAYGTFDW	Ctrl	2.32 ND 2.48 1.72 1.16 4.17	1 of 18 (1.62)
GFNLNSYGIS	VIYSDGRRTFYGDSVK	GSAAGTFDS	Ctrl+GPLM_HC	1.18 0.80 1.32 0.60 0.47 0.78; 1.61 0.87 0.21 0.51 0.38 0.55	0 of 36
GFDLNSYGSS	VIYSDGRRTFYGDSVK	GRAAGTFDS	Ctrl	ND ND ND ND ND ND	0 of 18
GVTLNSYGIS	VIYRDGMRTFYGDSVK	GRDAGTFDS	Ctrl	ND ND ND ND ND ND	0 of 18
GFTLNSYGIS	VIYSDGRRTFYGDSVK	GRAMGTFDA	Ctrl	ND ND ND ND ND ND	0 of 18
GFTLNSYGIS	VIYSDGRRTFYRDSVK	GREALTFDS	Ctrl	ND ND ND ND ND ND	0 of 18
GFELNSYGIS	VIYSDGRRTFYGDSVK	GRAAGTFDQ	Ctrl	0.61 2.74 1.14 2.60 1.82 ND	0 of 18
GFTLNSYGIS	VIYSDGWRTSYGDSVV	GRAAGTFDS	Ctrl	ND ND ND ND ND ND	0 of 18
GFTLNSYGIS	VIYSDGRRTFYGDSVK	VRAAGTFDS	Ctrl	ND ND ND ND ND ND	0 of 18
GFTLNSYGRS	VIYSDGRRTFYGDSVK	GRKAGTFDS	Ctrl	ND ND ND ND ND ND	0 of 18
GCTLNSYGIS	VIYSDGQRTFYGDSVK	GRAAGTFDS	Ctrl	ND ND ND ND ND ND	0 of 18
GFTIEDYGIS	VIYSDGVRTFYGDSVK	GRAAGTFDS	Ctrl	0.14 0.22 0.24 -0.16 -0.06 0.22	0 of 18
GFTLGSYGIS	VIYSDGIRTFYGDSVK	GRAAGTADV	Ctrl	ND ND ND ND ND ND	0 of 18
GLTLNSYGIS	VIYSDGRRTFYSDSVK	GRAAVTFDV	Ctrl	ND ND ND ND ND ND	0 of 18
GFTLNQYGIS	VIYSDGRRLFYGDSVK	GRAAGTFDW	Ctrl	ND ND ND ND ND ND	0 of 18
GFTLNDYGIS	VIYSDGRRTFYGDSVK	GKAAGTFDS	Ctrl+GPLM_HC	1.32 0.83 1.58 0.64 1.54 1.08; 0.79 0.69 0.38 0.80 0.26 0.60	0 of 36
GFTINSYGIS	VIYSDGRRTFYTDSVK	GTAHGTFDS	Ctrl	ND ND ND ND ND ND	0 of 18
GFTLNSYGIS	VIYSDGRRTFYGDSVK	GRAAGTFWS	Ctrl	ND ND ND ND ND ND	0 of 18
GFTLNDYGIS	VIYSDGIRTFYGDSVV	GRAAGTFDS	Ctrl	ND ND ND ND ND ND	0 of 18
GFTLNQYGIS	VIYWDGRRTFYGDSVK	GRAAGTFDS	Ctrl	ND ND ND ND ND ND	0 of 18
GFWLNSYGIS	VIYSDGRRTFYQDSYK	GRNALTFDS	Ctrl	ND ND ND ND ND ND	0 of 18
GFTLNKYGIS	VIYSDGQRTFYEDSVK	GRIAGTFDS	Ctrl	ND 1.71 ND 1.67 2.25 ND	0 of 18
GFTLNSYGIS	VIYSDGKRTFYGDSVV	GRARGTFDS	Ctrl	ND ND ND ND ND ND	0 of 18
GFTLNEYGIM	VIYSDGRRTFYGDSVK	GRAAGTFDS	Ctrl	ND ND ND ND ND ND	0 of 18
GFTINSYGIS	VIQSDGRRTFYGDSVK	GNEAQMFDS	Ctrl	ND ND ND ND ND ND	0 of 18
DFTLESYGIS	VIYSDGRRTFYGDSVK	GRVAGTFDS	Ctrl	ND 0.87 1.52 1.88 2.04 1.51	1 of 18 (1.89)
GFTINDYGIS	VIYSDGRRTFYGDSVK	GSAAGTFTS	Ctrl	ND ND ND ND ND ND	0 of 18
GFTLNSYGIS	VIYSTGRRTFYGDSVK	GRAAGTFDM	Ctrl	ND 2.17 ND ND 2.93 ND	0 of 18
GFTLNNYGIS	VIYSDGRRTAYQDSTK	GRAAGTTDQ	Ctrl	1.34 1.26 0.82 1.73 2.06 1.48	0 of 18
GFTLNSYGIS	VIYSDGKRTFYDDSVK	GNAAGTFDS	Ctrl	0.62 0.68 0.45 0.19 0.62 0.48	1 of 18 (3.40)

Repeated from above, the 5 best binders with a signal in all replicates:

CDR-H1,CDR-H2,CDR-H3,group,log10 Kd (nM) by replicate,signal with controls
GFTIEDYGIS,VIYSDGVRTFYGDSVK,GRAAGTFDS,Ctrl,0.14 0.22 0.24 -0.16 -0.06 0.22,0 of 18
GFTLNSYGIS,VIYSDGKRTFYDDSVK,GNAAGTFDS,Ctrl,0.62 0.68 0.45 0.19 0.62 0.48,1 of 18 (3.40)
GFNLNSYGIS,VIYSDGRRTFYGDSVK,GSAAGTFDS,Ctrl+GPLM_HC,1.18 0.80 1.32 0.60 0.47 0.78; 1.61 0.87 0.21 0.51 0.38 0.55,0 of 36
GFTLNDYGIS,VIYSDGRRTFYGDSVK,GKAAGTFDS,Ctrl+GPLM_HC,1.32 0.83 1.58 0.64 1.54 1.08; 0.79 0.69 0.38 0.80 0.26 0.60,0 of 36
GFTLNNYGIS,VIYSDGRRTAYQDSTK,GRAAGTTDQ,Ctrl,1.34 1.26 0.82 1.73 2.06 1.48,0 of 18

Some sequences occur more than once in the pool; their replicates are listed entry by entry, parted by semicolons.
Three control strains display no target. For all heavy chain designs, 1% of the pairings with them gave a signal, with a median of 2.08 and one signal in twenty below 0.84, so weak values seen in few replicates may be background. The control count says in how many pairings with the empty strains this scFv gave a signal, with their mean in brackets.
Of ten entries with the parent sequence, four were seen in most replicates (averages 0.34 to 2.37), three in one and three in none, so single entries are noisy.
In the paper, a design with two or fewer of six values counts as a poor binder.
Values of this round are not directly comparable with the first-round values of the same sequences.